Measured values reported in article PMC2650276 (Neuron, 2009).

Sequences of proteins named here, by UniProt entry; tags and fusion partners are left off. Residues count along the entry.
UniProt P11275, 91-272: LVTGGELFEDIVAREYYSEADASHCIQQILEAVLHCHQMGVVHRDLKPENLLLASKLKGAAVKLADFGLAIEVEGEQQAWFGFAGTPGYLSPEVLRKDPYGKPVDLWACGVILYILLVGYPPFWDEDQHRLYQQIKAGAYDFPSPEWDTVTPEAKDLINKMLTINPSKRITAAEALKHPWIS

Biological target: GST-CaMKIIαCD (L91-S272) (rat, UniProt P11275 91-272)
Assay: pull-down

B1: D3RIL3 (R210-Q375), released from GST by thrombin (domain or fragment, rat, UniProt P19020 210-375, looked up)
chain: RIYIVLRQRQRKRILTRQNSQCISIRPGFPQQSSCLRLHPIRQFSIRARFLSDATGQMEHIEDKQYPQKCQDPLLSHLQPPSPGQTHGGLKRYYSICQDTALRHPSLEGGAGMSPVERTRNSLSPTMAPKLSLEVRKLSNGRLSTSLRLGPLQPRGVPLREKKATQ
  binding result: binds
